IC50 data for one compound are collected here from BindingDB's records for 16153834.

Chains of the proteins cited; added tags and fusions are not shown. Lines headed by an entry give the natural chain unless they say otherwise; changes in a name come on top.
UniProt P41146: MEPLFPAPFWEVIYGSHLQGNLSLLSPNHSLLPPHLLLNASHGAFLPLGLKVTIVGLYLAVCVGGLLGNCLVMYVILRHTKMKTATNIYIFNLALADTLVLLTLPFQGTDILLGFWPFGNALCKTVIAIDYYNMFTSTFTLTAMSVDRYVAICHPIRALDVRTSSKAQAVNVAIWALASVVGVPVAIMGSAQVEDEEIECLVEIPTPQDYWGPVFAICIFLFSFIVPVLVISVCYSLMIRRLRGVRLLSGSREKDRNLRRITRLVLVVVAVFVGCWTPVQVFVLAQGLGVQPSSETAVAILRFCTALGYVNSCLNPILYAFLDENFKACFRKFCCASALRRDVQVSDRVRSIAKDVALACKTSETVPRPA

One may read the IC50 as the concentration that inhibits the measured activity by half. Lower therefore signals higher potency.

The test addresses Nociceptin receptor (Homo sapiens, UniProt P41146). As to the kind of experiment: Binding affinity determined by the ability to compete with [125I]-Tyr14- nociceptin from binding to human opiate receptor-like 1 expressed in HEK293 cells.

Structures are written as SMILES.

With `CCCN1C(=O)C2(CCN(CC3CCCCCCC3)CC2)c2cc(C(C)C)ccc21`, the IC50 is more than 10 µM.
